# Ab-91 heavy chain CDR variants: yeast mating affinities

Values reported by Engelhart et al. 2022, doi:10.1038/s41597-022-01779-4 (FLAb copy).

Target: peptide PDVDLGDISGINAS, taken from heptad repeat 2 (HR2) of SARS-CoV-2 spike.

The variants keep the light chain, the linker and the frameworks of Ab-91 (scFv order VL, a (GGGGS)3 linker, VH).
VL: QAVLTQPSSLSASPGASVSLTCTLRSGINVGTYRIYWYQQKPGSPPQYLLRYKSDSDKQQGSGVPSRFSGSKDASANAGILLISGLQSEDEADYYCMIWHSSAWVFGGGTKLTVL
VH: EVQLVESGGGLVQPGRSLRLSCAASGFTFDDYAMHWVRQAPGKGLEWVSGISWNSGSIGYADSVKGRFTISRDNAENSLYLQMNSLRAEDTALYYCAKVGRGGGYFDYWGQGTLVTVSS

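Phage display of a naive human antibody library on the peptide gave the parent. AAYL51 was designed without a model: most single CDR substitutions and a random sample of double and triple ones. Affinity was read by AlphaSeq, a pooled yeast mating assay with surface-displayed partners. Mating (16 h, 30 °C) was followed by selection of diploids and sequencing of their barcodes. The ratio of observed to expected reads was calibrated, replicate by replicate, on BCL2-family standards whose Kd was known from biolayer interferometry. Each pool was mated in three replicate cultures.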

The parent's heavy chain CDRs are GFTFDDYAMH, GISWNSGSIGYADSVK, VGRGGGYFDY; each variant's own CDRs replace them letter for letter. Every variant below is changed at T28 of the VH (sequential numbering). Affinities are written as log10 Kd with Kd in nM; a lower number is a better binder. A pair that was not seen in that replicate is written "nd"; this usually means weak binding, but a binder can also be missed. In this assay the parent's reference entry averaged 1.86; its copy inside this library read 0.88. Nonspecific signal, from three strains lacking the peptide, appeared in 21% of pairings of library AAYL51, centred on 4.54 (5% of these signals below 3.26); values are not corrected for it. Also given: how often the same scFv was detected with the empty control strains.

The variant GFGFDDDAMH | GISWNSGSIGYADSVK | VGRGGGYFQY showed nd, 4.16, nd (controls 1 of 9). The variant GFAFDDYAMW | GISWNSGSIVYADSVK | VGRGGGYFDY gave nd, nd, nd (controls 4 of 9). The variant GFDFDDYAMH | GISWNYGSIGYADSVK | VGRGGGYFDY gave 4.49, nd, nd (controls 3 of 9). With GEEFDDYAMH | GESWNSGSIGYADSVK | VGRGGGYFDY the result was nd, nd, nd (controls 1 of 9). The variant GFMLDDYAMH | GISWNSGSIGYADSVK | VGRGGGYFDR gave 1.19, 1.29, 0.66 (controls 1 of 9). With GFSFDCYAMH | GISWNSGSIWYADSVK | VGRGGGYFDY the result was 3.68, nd, nd (controls 1 of 9). The variant GFNFDDYAMH | GISWNSGSIGYADSVK | VGRGGGYFDY gave 2.43, 2.52, 1.71 (controls 4 of 9). For GFKFDDYAMH | GISWNSGSIGYADSVK | VGRGGGYFNY, the assay gave 3.05, 2.84, 3.08 (controls 2 of 9). For GFPFDDYAMH | GISWNSVSILYADSVK | VGRGGGYFDY, the assay gave 4.91, nd, nd (controls 0 of 9).

For GFNFDDYAMH | GISWNSGGIGYATSVK | VGRGGGYFDY, the assay gave nd, 5.58, nd (controls 1 of 9). With GFQFDDPAMH | GISWNSGSIGYADSVK | VGRGGGYFDY the result was 4.09, 5.68, 4.39 (controls 3 of 9). The variant GFVFDDYAMH | GRSWNSGSIGYADSVK | VGRGGGYFDY showed 4.67, 3.21, nd (controls 4 of 9). For GFFFRDYAMH | GISWNSGSIGYADSVK | VGRGGGWFDY, the assay gave 1.39, 1.32, 0.68 (controls 5 of 9). The variant GFMFDDYAMH | GIQWNSGSIGYADSVK | VGRGGGYFNY showed nd, 3.76, nd (controls 3 of 9). The variant GFYFDDYACH | GISWDSGSIGYADSVK | VGRGGGYFDY gave 5.23, nd, 5.54 (controls 5 of 9). For GFAFDDYLMH | GISWNSWSIGYADSVK | VGRGGGYFDY, the assay gave nd, nd, nd (controls 0 of 9). The variant GFMFDDYAMH | GITWYSGSIGYADSVK | VGRGGGYFDY showed 4.80, 4.40, 5.63 (controls 7 of 9). The variant GFMFDTYAMH | GASWNSGSIGYADSVK | VGRGGGYFDY showed 4.30, nd, nd (controls 1 of 9).

For GFIFDDYAMH | GISWNSGSIVYADSVK | VGRGGGYFDY, the assay gave nd, nd, nd (controls 0 of 9). The variant GFAFDDYAMH | GISWNSGSIGYALSVK | VGRGHGYFDY showed 4.46, nd, nd (controls 5 of 9). With EFRFDDYAMH | GISWNSGSIGYADSVK | VGRGGGWFDY the result was nd, nd, nd (controls 3 of 9). For GFHFRDYAMH | GFSWNSGSIGYADSVK | VGRGGGYFDY, the assay gave 4.12, 5.45, 5.02 (controls 2 of 9). The variant GFRFNDYAMH | GRSWNSGSIGYADSVK | VGRGGGYFDY showed nd, nd, nd (controls 3 of 9). The variant GFPFDDYAMH | GISWNSGSIGYADSVM | VGRGGGYMDY showed nd, nd, nd (controls 0 of 9). The variant GFYADDYAMH | GISWNSGSIGYADSVK | VGRGGGYFTY gave nd, nd, nd (controls 1 of 9). For AFVFDDYAMH | GISWNSGSIGFADSVK | VGRGGGYFDY, the assay gave 3.29, 3.28, 3.06 (controls 7 of 9). The variant GFIFDDYAMH | GISCNSGSIGYADSVK | VGRGPGYFDY showed 4.99, nd, 4.20 (controls 4 of 9).

The variant GFGFDFYAMH | GISWNSGSIGYADSVK | VGRGGGEFDY showed nd, nd, nd (controls 0 of 9). The variant GFLFDDYAMH | QISWNSGSIGYADSVK | VGRLGGYFDY gave nd, nd, nd (controls 0 of 9). The variant GFFFDDYAMH | GISWNSGSIGYADSVK | AGRGGGYFKY showed nd, 4.96, nd (controls 3 of 9). The variant GFKFDDYAMH | GISWNSGSIGYADWVK | VGRGGGKFDY showed 3.48, 3.45, 3.40 (controls 7 of 9). The variant GFLFDDIAGH | GISWNSGSIGYADSVK | VGRGGGYFDY showed nd, nd, 3.19 (controls 4 of 9). For GFWFDDYAMH | GISWNSGSIGYADSVK | VGEGGGYFDY, the assay gave 3.26, 5.25, nd (controls 3 of 9). With GFPFDDYAMH | GISWNSGSIWYADSVK | VGRGGGYEDY the result was nd, 2.96, 2.56 (controls 1 of 9). For HFEFDDYAMH | GISWNSGSIGYADSVK | VGRKGGYFDY, the assay gave nd, nd, nd (controls 2 of 9). For GFNFDDYAMH | GISWNSGSIGYADSQK | VGRGGGYFDY, the assay gave 3.03, 3.35, 3.09 (controls 3 of 9).

For GFVFDDYAMH | GISWNSGSIGYADSVK | VGRGTGYFDY, the assay gave nd, nd, nd (controls 4 of 9). With GFSFDDYAMH | GISWNSGSIGYADSVK | VGRGGGYDDY the result was nd, nd, 3.85 (controls 6 of 9). The variant GFLGDDYAMH | GISWNSGSIGYADSVK | VGRGGGYFDY gave nd, nd, nd (controls 0 of 9). With GFKFDDYAMH | GISWNSGSQGYADSVK | VGRGGGYFKY the result was 0.87, 0.90, 0.31 (controls 0 of 9). With GFPFDDYSMH | GISWNSGSRGYADSVK | VGRGGGYFDY the result was 2.61, 3.18, 3.07 (controls 0 of 9). With GFIFDDYAMH | GISWNSGSIGYADSVK | VGRGGDYFDY the result was 5.66, 5.99, nd (controls 6 of 9). The variant DFRFDDYAMH | GISWNSGSIGYADSVK | VGTGGGYFDY showed nd, 4.42, nd (controls 2 of 9).

Again, the first 5 entries without any signal:

Variant GFAFDDYAMW | GISWNSGSIVYADSVK | VGRGGGYFDY gave nd, nd, nd (controls 4 of 9).
Variant GEEFDDYAMH | GESWNSGSIGYADSVK | VGRGGGYFDY gave nd, nd, nd (controls 1 of 9).
Variant GFAFDDYLMH | GISWNSWSIGYADSVK | VGRGGGYFDY gave nd, nd, nd (controls 0 of 9).
Variant GFIFDDYAMH | GISWNSGSIVYADSVK | VGRGGGYFDY gave nd, nd, nd (controls 0 of 9).
Variant EFRFDDYAMH | GISWNSGSIGYADSVK | VGRGGGWFDY gave nd, nd, nd (controls 3 of 9).